{
  "source": "patent US6787149B1",
  "about": "(El Khoury and Stein Ltd., priority 2000, dated 2004)",
  "tested_on": "intraarticular opioid receptors",
  "experiment": "Intraarticular injection after arthroscopic surgery of the knee",
  "type": "in vivo, human",
  "settings": "also reported in Stein et al. 1991, Khoury et al. 1992",
  "data": [
    {"smiles": "CN1CC[C@]23c4c5ccc(O)c4O[C@H]2[C@@H](O)C=C[C@H]3[C@H]1C5.O=S(=O)(O)O", "note": "[Morphine, morphine sulfate]", "values": [
      {"measurement": "Pain relief, injection into the joint versus same dose intravenously", "value": "significantly more pain relief"}
    ]}
  ]
}
